The values below come from PMC11094875, “Cholecystokinin B receptor agonists alleviates anterograde amnesia in cholecystokinin-deficient and aged Alzheimer's disease mice” (Alzheimer's Research & Therapy, 2024).

By UniProt entry, the sequences of proteins in these tests, tags left out.
UniProt P32238, whole entry, species assumed: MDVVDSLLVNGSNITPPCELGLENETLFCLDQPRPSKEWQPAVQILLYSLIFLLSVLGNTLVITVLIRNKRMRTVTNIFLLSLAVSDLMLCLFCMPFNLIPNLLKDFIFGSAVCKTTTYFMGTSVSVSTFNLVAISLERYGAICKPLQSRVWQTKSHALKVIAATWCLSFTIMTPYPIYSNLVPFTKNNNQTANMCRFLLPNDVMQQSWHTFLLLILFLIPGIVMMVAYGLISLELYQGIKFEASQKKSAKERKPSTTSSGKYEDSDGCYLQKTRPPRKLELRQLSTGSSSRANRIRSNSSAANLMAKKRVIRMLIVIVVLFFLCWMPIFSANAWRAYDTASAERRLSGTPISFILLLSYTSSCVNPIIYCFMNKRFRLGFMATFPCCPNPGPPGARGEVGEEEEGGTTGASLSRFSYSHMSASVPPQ

One series concerns the target T1, CCKAR (Homo sapiens, UniProt P32238).
T1 construct: expressed in transfected cells; host or cells: CHO cells overexpressing CCKAR
Put plainly: In vitro calcium imaging assay, CHO-CCKAR cells. Format: cell-based.

In the next series the target is T2, CCKBR (Homo sapiens, UniProt P32239).
T2 construct: expressed in transfected cells; host or cells: CHO CCKBR cell line
T2 sequence (P32239 1-447): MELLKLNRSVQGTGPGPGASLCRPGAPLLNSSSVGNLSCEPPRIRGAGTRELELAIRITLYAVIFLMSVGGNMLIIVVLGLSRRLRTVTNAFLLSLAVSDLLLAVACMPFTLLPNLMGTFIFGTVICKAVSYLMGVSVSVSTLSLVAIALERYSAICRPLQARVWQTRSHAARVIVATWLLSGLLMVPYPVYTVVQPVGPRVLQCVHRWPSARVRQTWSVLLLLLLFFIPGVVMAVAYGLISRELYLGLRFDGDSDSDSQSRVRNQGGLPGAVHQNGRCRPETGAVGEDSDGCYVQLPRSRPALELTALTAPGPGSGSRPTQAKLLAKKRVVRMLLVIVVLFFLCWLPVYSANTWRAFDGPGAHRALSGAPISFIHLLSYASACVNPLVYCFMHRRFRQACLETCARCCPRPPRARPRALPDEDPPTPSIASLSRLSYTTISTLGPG
Put plainly: In vitro calcium imaging assay, CHO-CCKBR cells. The format is cell-based. Conditions: read-out: 100% CCK8s maximal response.

For series [1] the following is noted: after i.p. injection ref 26; cited from earlier work.

For orientation: EC50 means the concentration that produces a half-maximal response. As for `CSCC[C@H](NC(=O)[C@@H](N)Cc1c[nH]c2ccccc12)C(=O)N[C@@H](CC(=O)O)C(=O)N[C@@H](Cc1ccccc1)C(N)=O` [CCK-4, CCK tetrapeptide], the 50% effective concentration (EC50) on CCKAR (CHO-CCKAR cells, Fluo-8 calcium assay, mean ± SEM) stood at 2.27 ± 0.493 µM. The values for the Emax on CCKAR (read-out: 100% CCK8s maximal response) and at CCKBR were 48.1 ± 3.42% and 91.3 ± 6.37%, respectively. Further, in series [1], the “blood–brain barrier penetration” value is reported as “can penetrate the blood–brain barrier”.
